scFv variants of Ab-95 (light chain) against a SARS-CoV-2 spike peptide

The target is the same throughout: PDVDLGDISGINAS, from the HR2 region of SARS-CoV-2 spike.

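The parent was found by panning a naive human phage display library on the peptide. The library (AAYL52) carries one to three amino acid substitutions per variant, with no insertions or deletions. The assay is AlphaSeq: two haploid yeast populations carry antibody and antigen on their surface. Pairs that bind mate more often; barcode pairs of the diploids are counted by sequencing. The ratio of observed to expected reads was calibrated, replicate by replicate, on BCL2-family standards whose Kd was known from biolayer interferometry. The assay was run in three technical replicates.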

The variants keep the heavy chain, the linker and the frameworks of Ab-95 (scFv order VH, the linker GGGGSGGGGSGGGGS, VL).
VH: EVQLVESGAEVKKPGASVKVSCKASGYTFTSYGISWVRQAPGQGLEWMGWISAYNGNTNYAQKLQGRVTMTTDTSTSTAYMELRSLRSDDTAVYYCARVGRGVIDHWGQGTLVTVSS
VL: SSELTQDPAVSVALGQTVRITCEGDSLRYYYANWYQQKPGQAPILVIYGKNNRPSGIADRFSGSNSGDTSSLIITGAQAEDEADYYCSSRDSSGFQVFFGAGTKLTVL

Changes read parent residue, position, new residue, counted from the first residue of the VL shown.
All variants listed here change S55 of the VL, counted from its first residue.
The read-out is the apparent dissociation constant on a log10 scale (nM): the lower, the stronger.
Averages over replicates are reported, and they cover detected replicates only.
An entry "nd" has no value in the source: the pair was not observed among the diploids in any replicate. This suggests poor binding but is not conclusive.
As a blank, each scFv also met three strains without target: over library AAYL52, 28% of these pairings were detected, typically at 3.91 and seldom below 2.90. For each scFv, signals with the empty controls are counted beside the result.

Variant N52L S55V S92L showed 2.75 (3 of 3 replicates; controls 3 of 9).
Variant R28Q S55N S92A showed 1.66 (3 of 3 replicates; controls 2 of 9).
Variant N33P S55N D91M showed 4.10 (1 of 3 replicates; controls 1 of 9).
Variant Y30L N51I S55V showed 3.65 (1 of 3 replicates; controls 2 of 9).
Variant S55W F95V Q96G showed 3.36 (3 of 3 replicates; controls 4 of 9).
Variant Y29W S55L showed 3.06 (3 of 3 replicates; controls 2 of 9).
Variant S55D showed 1.51 (3 of 3 replicates; controls 5 of 9).
Variant R28H S55H V97H showed 3.43 (3 of 3 replicates; controls 2 of 9).
Variant D25P S55H G94R showed 3.23 (3 of 3 replicates; controls 5 of 9).
Variant Y30R S55Q D91V showed 5.41 (1 of 3 replicates; controls 1 of 9).
Variant A32P S55L F98L showed 3.69 (3 of 3 replicates; controls 1 of 9).
Variant G49S N51H S55E showed 3.74 (2 of 3 replicates; controls 3 of 9).
Variant S55A S88F S92R showed 3.79 (1 of 3 replicates; controls 0 of 9).
Variant S26V S55D F95D showed 3.35 (2 of 3 replicates; controls 3 of 9).
Variant G49K S55K V97W showed nd (0 of 3 replicates; controls 1 of 9).
Variant R28M S55D S92Q showed 1.66 (3 of 3 replicates; controls 3 of 9).
Variant Y30D R53I S55H showed 2.24 (3 of 3 replicates; controls 0 of 9).
Variant N52C S55Y Q96L showed 4.52 (3 of 3 replicates; controls 6 of 9).
Variant D25H S55W S93T showed 2.72 (3 of 3 replicates; controls 2 of 9).
Variant Y29A N33M S55W showed 3.79 (1 of 3 replicates; controls 2 of 9).
Variant Y30A S55A S89E showed 1.93 (3 of 3 replicates; controls 2 of 9).
Variant A32D S55Q Q96N showed 4.79 (1 of 3 replicates; controls 1 of 9).
Variant L27E G49S S55H showed nd (0 of 3 replicates; controls 2 of 9).
Variant D25C R53M S55N showed 4.22 (2 of 3 replicates; controls 5 of 9).
Variant S55T D91Y showed 2.77 (3 of 3 replicates; controls 0 of 9).
Variant S55D R90G D91C showed 2.83 (3 of 3 replicates; controls 2 of 9).
Variant E23D S26N S55N showed 2.56 (3 of 3 replicates; controls 1 of 9).
Variant S55C D91L F95K showed nd (0 of 3 replicates; controls 4 of 9).
Variant S55M S89D V97Q showed 4.56 (2 of 3 replicates; controls 0 of 9).
Variant Y30Q S55G G94R showed 1.05 (3 of 3 replicates; controls 5 of 9).
Variant Y29F S55G showed 2.36 (3 of 3 replicates; controls 3 of 9).
Variant N52W P54R S55Q showed 3.51 (3 of 3 replicates; controls 3 of 9).
Variant N51L S55A R90Y showed nd (0 of 3 replicates; controls 0 of 9).
Variant D25V S55D D91W showed 4.00 (3 of 3 replicates; controls 2 of 9).
Variant A32N S55K V97I showed 3.88 (1 of 3 replicates; controls 6 of 9).
Variant D25H S55M S92I showed 2.74 (3 of 3 replicates; controls 3 of 9).
Variant D25P S55Y G94D showed 3.68 (3 of 3 replicates; controls 5 of 9).
Variant D25Q N33E S55A showed 2.24 (3 of 3 replicates; controls 2 of 9).
Variant S55C S88V V97H showed 2.95 (3 of 3 replicates; controls 4 of 9).

In this assay the parent's reference entry averaged 2.31; its copy inside this library read 2.25.

Source: Engelhart et al. 2022 (doi:10.1038/s41597-022-01779-4), MIT Lincoln Laboratory and A-Alpha Bio; data file from the FLAb repository.